The assay has as its target recombinant human MAO-A (hMAOA) (Homo sapiens, UniProt P21397). Briefly: MAO-A inhibition, fluorometric Amplex UltraRed assay. The note with it: 1 µM compound.

The chains behind the UniProt entries cited, without tags or fusion partners.
UniProt P21397, whole entry: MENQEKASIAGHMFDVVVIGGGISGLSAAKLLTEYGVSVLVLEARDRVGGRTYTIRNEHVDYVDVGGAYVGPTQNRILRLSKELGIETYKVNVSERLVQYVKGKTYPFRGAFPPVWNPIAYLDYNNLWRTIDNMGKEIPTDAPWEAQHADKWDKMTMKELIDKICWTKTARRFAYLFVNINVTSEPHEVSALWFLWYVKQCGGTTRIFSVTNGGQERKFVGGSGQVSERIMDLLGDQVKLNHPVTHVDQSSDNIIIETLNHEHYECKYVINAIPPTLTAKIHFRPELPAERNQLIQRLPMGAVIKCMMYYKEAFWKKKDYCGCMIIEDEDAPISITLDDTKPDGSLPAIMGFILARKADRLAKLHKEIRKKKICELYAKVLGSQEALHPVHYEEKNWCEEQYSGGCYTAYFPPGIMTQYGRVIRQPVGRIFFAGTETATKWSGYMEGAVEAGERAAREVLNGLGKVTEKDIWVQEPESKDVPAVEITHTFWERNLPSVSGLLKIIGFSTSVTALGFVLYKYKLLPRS

The text below walks through data of article PMC12655551, “Design, Synthesis, and Evaluation of Pyrrole-Based Selective MAO-B Inhibitors with Additional AChE Inhibitory and Neuroprotective Properties Identified via Virtual Screening” (Pharmaceuticals, 2025).

Take `C#CCN(C)CCCOc1ccc(Cl)cc1Cl` [Chlorgyline, reference compound]: the “Inhibition Activity 1 µM MAO-A” value is reported as 45 ± 6.6%.
